The values that follow are results of earlier work, collected in patent publication US12157750B2, “Bright targetable red CA2+ indicators” (HOWARD HUGHES MEDICAL INSTITUTE, priority 2019, dated 2024).

The conditions of data set [1]: known indicator, literature value (ref. 15); saturating Ca2+; cited from earlier work.
The conditions of data set [2]: known indicator, cited from earlier work.

Oregon Green BAPTA-1 [Compound 1]: in data set [1], the ϕsat is recorded as 0.70. In data set [2] (literature value (ref. 15)), the λem is listed as 523 nm and the λmax was 492 nm. Besides, the “excitation maxima (λex)” value in data set [2] (literature value) is 492 nm.
